## Binding of CDR-mutated scFvs to a peptide of the spike HR2 region

Data: MIT Lincoln Laboratory AlphaSeq set, Li et al. 2023, doi:10.1038/s41467-023-39022-2, as distributed in FLAb.

Antigen: PDVDLGDISGINAS, a 14-residue peptide of the SARS-CoV-2 spike HR2 region.

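The starting antibody came from a phage panning campaign against this peptide. These sequences belong to a second round, designed from the earlier measurements on random variants of the parent. Several design methods are mixed in this list. Affinity was read by AlphaSeq, a pooled yeast mating assay with surface-displayed partners. The frequency of each diploid, read from paired DNA barcodes, reflects how well the two displayed proteins bind. The ratio of observed to expected reads was calibrated, replicate by replicate, on BCL2-family standards whose Kd was known from biolayer interferometry. The assay was run in six technical replicates.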

Parent scFv Ab-14: VH joined to VL by the linker GGGGSGGGGSGGGGS. Changes lie in the light chain CDRs alone.
VH: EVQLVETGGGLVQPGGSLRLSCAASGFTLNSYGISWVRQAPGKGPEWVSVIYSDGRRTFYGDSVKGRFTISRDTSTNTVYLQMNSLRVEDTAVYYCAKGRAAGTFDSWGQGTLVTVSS
VL: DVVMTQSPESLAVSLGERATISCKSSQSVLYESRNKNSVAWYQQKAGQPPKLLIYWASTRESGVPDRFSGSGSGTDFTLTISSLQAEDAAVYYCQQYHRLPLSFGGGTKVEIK

Variants are written as CDR1, CDR2 and CDR3 of the light chain (limits as in the source). Parent: KSSQSVLYESRNKNSVA, WASTRES, QQYHRLPLS.
Values are apparent Kd, the geometric mean of the replicates that gave a signal; lower means stronger binding.
"no signal" means that the variant was in the library but no mating with the target was seen in any replicate; the authors take this as a sign of poor binding, and no number exists.

CDR-L1	CDR-L2	CDR-L3	Kd	seen in
TLSELMDMTSRNVNSVA	DLTTRGN	QQYHRLPLS	6.5 nM	6 of 6
KSSQSDCYESRNRNSVA	YASTRES	QQYHRMPNS	no signal	0 of 6
KLSQSFLYEDRNWNSVA	AASKRES	QQYHRLPLS	1.6 nM	6 of 6
MMSQVTGLGMRHQNNVA	QTSTREP	QQYDRLPLI	9.1 nM	6 of 6
KLSGATRMESRNKASVA	ENSTRGE	QQYFRLPLS	4.8 nM	6 of 6
KLTMISGLEKVSTNNVA	EMETREK	QQYNRLPLS	3.9 nM	6 of 6
DSSQSVLYESRNKNSIA	GASTRES	QQYHRLPLS	2.6 nM	6 of 6
KSSQSVSYESGNKNSVA	QASIRES	QQYHRMPLS	8.6 nM	6 of 6
KLSQSEGYESRNKNSVA	NASQREE	QQYHRLPLS	380 pM	6 of 6
MFSQLVYTGSRTKNAVA	QASTREN	QQYHHLPLS	15 nM	6 of 6
MISQVMNTLTRNGNNVA	DLQERED	QQYFRLPLS	14 nM	6 of 6
KFEQSELYESRNKNSVA	EASQRES	QQYHRLPLS	340 pM	6 of 6
KLRQSCLYESRNKNSVA	MASQRCS	QQYHRLPLS	4.0 nM	6 of 6
KLVQSVLYESRNKNSVA	DASQRES	QQYHRLPLS	470 pM	6 of 6
KTPQGVLYESRNKNSVA	DASVRES	QQYHRLPLS	850 pM	6 of 6
KSSQSVLYESRNKNWVA	YASTRES	QQYHRLPLS	no signal	0 of 6
MLNGPVEIEQHKWNSVA	SAEILAM	QQYGRLPFS	2.4 nM	6 of 6
KSSQSVLDESRNKNSVA	WASTRED	QQYHRLGLS	16 nM	6 of 6
KLYFNVGTLAHNTQSIA	DMERRED	QQYHRLPLS	1.0 nM	6 of 6
KLDGSCQYESRTKNSVA	DASTRES	QQYHRLPLS	820 pM	6 of 6
KVSQSVLMESRNKNSVA	NASTRES	QQYHRLPLS	2.1 nM	6 of 6
NLGGEDANDTRGMMAVA	DVSTVGE	QHYNRLPLS	260 nM	1 of 6
KSSHEVLYESRNKNSVA	WASIRES	QQYHRLPLS	47 nM	6 of 6
KLSQSVLYESRNKNSVA	QASTRES	QWYHRLPLD	no signal	0 of 6
KWSQSELFESRNKNSVA	DASTRES	QQYHRLPLS	1.6 nM	6 of 6
MITAVMYAYNESFSSIA	DKTISVN	QQYDRLPLL	no signal	0 of 6
KMRVSLTQGIYRQDSVA	STDIRVL	QQYHHLPLS	60 nM	6 of 6
RITILSDYYNENRNAIA	QTSLKAH	QQYQMLPLT	3.4 nM	6 of 6
KVDQEVDGQSRNKNSVA	DASQREW	QQYHRLPLS	930 pM	6 of 6
KMSQSVLDESRNKNSVA	DASTRFS	QQYLRLPLS	1.7 nM	6 of 6
HSSPSVLYEDRNKNNVA	NASTRES	QQYHRLPLS	1.0 nM	6 of 6
KMSQSVLMEHGNKNSVA	DASLRES	QQYHRLPLS	910 pM	6 of 6
QLSQAYRVGENWKESIA	HGSVRVE	QCYVRLPLS	2.7 nM	6 of 6
KSSISYLQESRNKNSVA	EASTRES	QQYHRLPLS	960 pM	6 of 6
KLSQSVLYESRQKNSVA	NASTRMQ	QQYHRLPLS	1.4 nM	6 of 6
KSNIILLYESRNHNSVA	EASTRES	QQYHRLPLS	7.3 nM	2 of 6
KLSQWWLYESRMKNAVA	NASTRED	QQYHRLPLS	1.2 nM	6 of 6
VLQQSVLYESRNKNSVA	NASKREE	QQYHRLPLS	620 pM	6 of 6
KSSQSVEYESRNKNSVA	RASTREP	QQYHRLPLS	10 nM	6 of 6
KVSMSVLYESRNKNSVA	DASTRES	QQYHRLPLS	650 pM	6 of 6
SLMQSWLYESRNKNSVA	HASLRED	QQYHRLPLS	2.1 nM	6 of 6
HITYGMMLYGRHSKSIA	QAEERAK	QQYDRLPLV	140 nM	4 of 6
SSSQSVLYESRNKNSVA	WASTRES	QQYHRMPLS	230 nM	2 of 6
KFEQSELYESRNKNSVA	NASTRES	QQYHRLPLS	1.0 nM	6 of 6
KLSQLMLYESRNKNSVA	NASTRLS	QDYHRLPLS	3.2 nM	6 of 6
KSSQSVLYASRNKNSVA	WASTRES	QQYHRLPLS	110 nM	4 of 6
KLPQSVPYESRNKNSVA	SASTRES	QQYHRLPLS	1.5 nM	6 of 6
KSSQSDLYESRNKNSVA	WASTREE	QQYHRLPLS	32 nM	6 of 6
KTYQQVEYESRNKNSVA	WASTRES	QQVHRLPLS	no signal	0 of 6
KFSQSDDYEDRNKNSVA	NASTRSS	QQYHRLPLS	5.7 nM	6 of 6
KVEQSNPYESRNANSVA	NASQRES	QQYHRLPLS	1.4 nM	6 of 6
KISQMYRYEQQNHSSIA	EANTREQ	QSYYRLPLS	640 nM	2 of 6
KISQSVLQESRNMNSVA	WASTRES	QQYHRLPLS	6.3 nM	6 of 6
RLTNEFFKEMERKNSVA	HADQRCM	QQYFRLPLI	10 nM	6 of 6
VFQQQWDGHTDTNSSVA	NVDERME	QQYYRLPLL	5.1 nM	6 of 6
KLYASTMLEMHDKNSIA	DLSTRGN	QQYHRLPLS	2.8 nM	6 of 6
KLPQSVDYESRNKNSVA	EASTRES	QQYHRLPLS	3.3 nM	6 of 6
KLQQSGLMGSRNKNSVA	EASTRLV	QAYHRLPLS	2.6 nM	6 of 6
KLSQHVEYESRNKNSVA	NASTRLK	QQYHRLPLS	1.7 nM	6 of 6

The 8 strongest on average among those seen in every replicate, once more:

CDR-L1	CDR-L2	CDR-L3	Kd	seen in
KFEQSELYESRNKNSVA	EASQRES	QQYHRLPLS	340 pM	6 of 6
KLSQSEGYESRNKNSVA	NASQREE	QQYHRLPLS	380 pM	6 of 6
KLVQSVLYESRNKNSVA	DASQRES	QQYHRLPLS	470 pM	6 of 6
VLQQSVLYESRNKNSVA	NASKREE	QQYHRLPLS	620 pM	6 of 6
KVSMSVLYESRNKNSVA	DASTRES	QQYHRLPLS	650 pM	6 of 6
KLDGSCQYESRTKNSVA	DASTRES	QQYHRLPLS	820 pM	6 of 6
KTPQGVLYESRNKNSVA	DASVRES	QQYHRLPLS	850 pM	6 of 6
KMSQSVLMEHGNKNSVA	DASLRES	QQYHRLPLS	910 pM	6 of 6

In the paper, a design with two or fewer of six values counts as a poor binder.
The parent sequence was in this pool as ten entries: three were never detected, three once, and four in most replicates, with averages from 2.2 nM to 240 nM.
Values of this round are not directly comparable with the first-round values of the same sequences.
Three control strains display no target. For all light chain designs, 4% of the pairings with them gave a signal, with a median of 430 nM and one signal in twenty below 38 nM, so weak values seen in few replicates may be background.